Data from US12552694B2, “Use of trivalent metals to enhance aquatic pesticide efficacy, surface water, and sediment quality while minimizing risk to aquatic biota” (SePRO Corporation, priority 2022, dated 2026).

Assay: Example 1: capacity of additives to bind dissolved La and Ce (ICP-OES)
Type: physicochemical

pH: 9.5
Substance: sodium EDTA
